Results published in patent US20230348465A1, “IBOGAINE ANALOGS AS THERAPEUTICS FOR NEUROLOGICAL AND PSYCHIATRIC DISORDERS” (The Trustees of Columbia University in the City of New York, priority 2020, published 2023).

The chains behind the UniProt entries cited, without tags or fusion partners.
UniProt Q01827, whole entry: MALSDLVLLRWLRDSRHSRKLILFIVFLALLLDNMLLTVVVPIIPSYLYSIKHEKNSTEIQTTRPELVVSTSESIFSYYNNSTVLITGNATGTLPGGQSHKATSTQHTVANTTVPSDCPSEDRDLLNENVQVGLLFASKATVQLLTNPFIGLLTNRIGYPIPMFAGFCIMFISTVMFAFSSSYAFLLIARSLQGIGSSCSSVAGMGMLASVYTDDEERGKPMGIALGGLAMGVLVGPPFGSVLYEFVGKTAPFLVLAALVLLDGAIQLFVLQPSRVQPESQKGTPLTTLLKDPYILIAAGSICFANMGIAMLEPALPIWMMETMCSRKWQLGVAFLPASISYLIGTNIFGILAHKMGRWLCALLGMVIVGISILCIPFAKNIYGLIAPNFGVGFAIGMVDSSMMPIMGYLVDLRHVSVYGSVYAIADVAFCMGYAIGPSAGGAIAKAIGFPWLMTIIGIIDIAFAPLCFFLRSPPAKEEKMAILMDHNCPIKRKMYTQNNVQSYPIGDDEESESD

Target: rVMAT2 (Rattus norvegicus, UniProt Q01827)
Test: rVMAT2 screening assay: inhibition of uptake of the fluorescent substrate FFN206 in stably transfected rVMAT2-HEK cells

In the case of `COC(=O)[C@H]1[C@H]2C[C@@H]3c4[nH]c5cc(OC)ccc5c4CCN3C[C@H]2C[C@@H](OC(=O)c2cc(OC)c(OC)c(OC)c2)[C@@H]1OC` [Reserpine, reference compound], the IC50 is reported as 0.017 ± 0.0055 µM.
